Earlier results in patent US20240374569A1, “HDAC3 INHIBITORS FOR THE TREATMENT OF LANGERHANS CELL HISTIOCYTOSIS AND LANGERHANS CELL SARCOMA” (HENRY FORD HEALTH SYSTEM, priority 2021, published 2024).

Tested on: BRAF (V600)-mutated metastatic melanoma
Conditions: phase 1 and 2 trials, patients; cited from earlier work

## CC(C)(C)c1nc(-c2cccc(NS(=O)(=O)c3c(F)cccc3F)c2F)c(-c2ccnc(N)n2)s1 [Dabrafenib]
  safety profile: manageable safety profile
